Experimental data as given in patent US20250213700A1, “COMPOUNDS, COMPOSITIONS, AND METHODS FOR CELL-SPECIFIC PHARMACOLOGY” (Duke University, priority 2022, published 2025).

Legend:
Format in all cases: cell-based, rat
[1] = target: HaloTag Protein (HTP) on +HTP neurons (Rhodococcus rhodochrous, UniProt P0A3G2, A155T/A167V/A172T/A224E/C128F/C176G/D78G/E160K/E257K/H272N/K175M/K195N/L47V/L88M/N227D/S58T/T264A/Y273L/Y87F); test: biotin-HTL capture dose-response on +HTP cultured neurons
Protocol: Cultured neuronal assays: Preparation of hippocampal cultures: Mixed glial and neuronal cultures were prepared from the hippocampus of postnatal day 0 to 1 Sprague-Dawley rat pups. Separate pools of dissociated cells were transfected via electroporation (LONZA, V4SP-3096) with plasmid constructs, and depending on assay directives, either plated individually or mixed with a different pool of electroporated cells after a 10 min recovery period. Cells were cultured on coverslips (Deckglaser) pre-treated with high molecular weight poly-D-lysine (Sigma, P7405; 0.05 mg/mL) in 24-well plates and maintained in NbActiv4 (BrainBits, Nb4-500) at 37 C, 5% CO2. […]
Various compounds were assessed by measuring their EC50 (nM); the concentration needed to achieve half-maximal capture on +HTP neurons following 15 minutes of incubation with the given ligand.
To enable direct quantification of capture efficiency, commercially available HTL (i.e., HTL.1) were conjugated to biotin via a flexible polyethylene glycol linker of moderate length (PEG12), to mimic the longer (PEG36) linker typically used in an RxDART. […] Dose-response curves were performed by incubating neuronal coverslips with a given ligand for 15 min, followed by washing, fluorescent labeling of biotin, and quantification of capture. […]

ddHTP = ddHTP (Rhodococcus rhodochrous, UniProt P0A3G2, A155T/A167V/A172T/A224E/C128F/C176G/D106E/D78G/E160K/E257K/H272N/K175M/K195N/L246R/L47V/L88M/N227D/N41E/S58T/T264A/V245L/W107G/Y273L/Y87F); test: binding of HTL.2 to double dead control protein ddHTP in cultured neurons
Text: biotin-HTL: Dissociated neurons were electroporated with either the +HTP or ddHTP construct and cultured as described above. A dilution series for both the biotin-PEG12-HTL.1 and biotin-PEG12-HTL.2 compounds was made in BASE solution containing 1% BSA (Sigma A7904), representing 12 final concentrations (in uM) between 10 and 0.001. After a brief rinse in BASE+BSA to acclimate the live neurons to room temperature and avoid temperature effects to the binding kinetics, a single coverslip was incubated in one of the twelve dilutions for 15 min, washed twice in BASE+BSA, then incubated in a 1:500 dilution of Streptavidin-AlexaFluor488 (Invitrogen) for 15 min. The neurons were rinsed four times then transferred to a glass-bottom imaging plate containing BASE+BSA. Each coverslip was imaged in its entirety by combining several 10× images (TR at 10 ms; GFP at 100 ms) together using the Olympus CellSens software stitching algorithm. A dose-response curve was created from the individual coverslips using MatLab.
Mutation of the HTP at its D106 residue was first explored, to which HTL forms a covalent bond. […] Next, the distributed mutations of the catalytic triad was explored, combining the subtle D106E mutation with W107G and N41E mutations. A second strategy was also explored, in which the tunnel entrance was blocked by installing bulky side-chains, with V245L and L246R mutations.

endogenous AMPARs = test: all-optical cultured-neuron assay of AMPAR-dependent synaptic transmission; conditions: YM90K payload

In the case of `COc1cc(CCCCl)ccc1CCOCCNC(=O)c1ccc(CNC(=O)CCOCCOCCOCCOCCOCCOCCOCCOCCOCCOCCOCCOCCNC(=O)CCCC[C@@H]2SC[C@@H]3NC(=O)N[C@@H]32)cc1`, the “HTL50 (t=15 m) improvement over HTL.1” value ([1]; biotin payload) is reported as 40 fold, the EC50 ([1]; read-out: HTL50 (t=15 m), side-by-side capture experiments on cultured neurons, biotin-PEG12 conjugate, 15 min) is reported as 10 nM and the “binding to ddHTP” value (ddHTP) is reported as “zero measurable binding”. The “HTL50 (t=15 m) change, HTL.1 to HTL.2” value (endogenous AMPARs) was 10 fold.
